# Ab-14 light chain CDR variants: yeast mating affinities

Target peptide (SARS-CoV-2 spike, HR2 region): PDVDLGDISGINAS

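The variants were designed computationally from a first round of random CDR variants and then made and measured. Their group label is 14L_En_Gen (En: ensemble of fine-tuned language models; Gen: genetic algorithm). The assay is AlphaSeq: two haploid yeast populations carry antibody and antigen on their surface. The frequency of each diploid, read from paired DNA barcodes, reflects how well the two displayed proteins bind. The ratio of observed to expected reads was calibrated, replicate by replicate, on BCL2-family standards whose Kd was known from biolayer interferometry. There are six technical replicates.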

Ab-14 is the parent antibody, in scFv form: VH, then a 15-residue (Gly4Ser)3 linker, then VL. The heavy chain is unchanged in all variants.
VH: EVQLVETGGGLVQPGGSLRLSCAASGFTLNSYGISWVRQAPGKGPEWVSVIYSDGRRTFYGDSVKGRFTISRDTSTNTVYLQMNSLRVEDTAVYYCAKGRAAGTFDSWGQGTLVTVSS
VL: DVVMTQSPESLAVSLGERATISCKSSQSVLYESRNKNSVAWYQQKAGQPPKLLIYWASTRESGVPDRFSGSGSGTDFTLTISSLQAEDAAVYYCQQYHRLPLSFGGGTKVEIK

The whole VL of each variant is written out.
Values are log10 of the apparent Kd in nM; lower means stronger binding.
Averages over replicates are reported, and they cover detected replicates only.
"nd" marks a missing value. The strain was present, yet no cells mated with the target were sequenced in that replicate, which points to weak or no binding.
In the paper, a design with two or fewer of six values counts as a poor binder.

| # | VL | replicates, log10 nM | mean log10 Kd (nM) | empty controls |
|---|---|---|---|---|
| 1 | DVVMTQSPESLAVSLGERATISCIVSQLMLWGLHAKNSIAWYQQKAGQPPKLLIYEAEIRTNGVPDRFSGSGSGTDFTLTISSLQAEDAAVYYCQQYDRLPLIFGGGTKVEIK | nd nd nd nd nd nd | nd | 0 of 18 |
| 2 | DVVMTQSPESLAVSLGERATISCMISQLYNMGQFAINSVAWYQQKAGQPPKLLIYQASIRNEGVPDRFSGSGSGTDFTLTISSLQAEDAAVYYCQQYDRLPLAFGGGTKVEIK | 1.57 1.68 1.28 1.41 1.32 1.31 | 1.43 | 1 of 18 (2.72) |
| 3 | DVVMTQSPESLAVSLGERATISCMLSGVLHMLGQKKNSIAWYQQKAGQPPKLLIYDLVMRANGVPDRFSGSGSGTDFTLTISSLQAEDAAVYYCQQYHRLPLQFGGGTKVEIK | 2.25 1.57 nd 1.34 1.25 1.81 | 1.64 | 0 of 18 |
| 4 | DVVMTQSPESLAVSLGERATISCIVSQLMLWGYHAKNSIAWYQQKAGQPPKLLIYEAVTRYNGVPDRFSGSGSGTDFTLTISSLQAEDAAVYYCQQYDRLPLFFGGGTKVEIK | 1.07 0.80 0.93 0.79 0.41 1.11 | 0.85 | 0 of 18 |
| 5 | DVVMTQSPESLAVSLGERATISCTISQVMNLLTRHGNNVAWYQQKAGQPPKLLIYDLEEREDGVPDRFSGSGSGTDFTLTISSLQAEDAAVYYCQQYFRLPLSFGGGTKVEIK | nd nd nd 1.10 nd 0.81 | 0.96 | 0 of 18 |
| 6 | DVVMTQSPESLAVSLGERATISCQISMLLNFESKIGQNVAWYQQKAGQPPKLLIYQMETRVNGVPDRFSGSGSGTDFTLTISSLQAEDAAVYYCQQYHHLPLSFGGGTKVEIK | 1.41 1.32 0.81 2.18 1.17 1.09 | 1.33 | 1 of 18 (2.16) |
| 7 | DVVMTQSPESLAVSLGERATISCQLSQVTGHMQVEKNNVAWYQQKAGQPPKLLIYEMDTRENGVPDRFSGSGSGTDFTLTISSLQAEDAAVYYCQQYDRLPLSFGGGTKVEIK | 2.58 1.40 1.18 1.84 1.09 1.89 | 1.66 | 2 of 18 (2.78) |
| 8 | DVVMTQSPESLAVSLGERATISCHLGLVTMLEYAVRNNVAWYQQKAGQPPKLLIYNNSTREEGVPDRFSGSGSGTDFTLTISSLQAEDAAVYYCQQYDRLPLSFGGGTKVEIK | nd nd nd nd nd nd | nd | 0 of 18 |
| 9 | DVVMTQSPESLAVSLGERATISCTISQVMNSLTRHGNNVAWYQQKAGQPPKLLIYDLAEREDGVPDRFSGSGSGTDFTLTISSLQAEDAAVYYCQQYFRLPLSFGGGTKVEIK | 0.74 0.68 0.63 0.90 0.34 0.72 | 0.67 | 1 of 18 (2.55) |
| 10 | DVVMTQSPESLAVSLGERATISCMIGQMLGVQSNKIHSVAWYQQKAGQPPKLLIYQANLREDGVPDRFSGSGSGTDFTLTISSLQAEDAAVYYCQQYDRLPLEFGGGTKVEIK | 0.02 1.53 0.53 1.38 1.09 1.00 | 0.93 | 0 of 18 |
| 11 | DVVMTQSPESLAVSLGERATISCSISGFMKSLAAHSNSVAWYQQKAGQPPKLLIYDMTNREQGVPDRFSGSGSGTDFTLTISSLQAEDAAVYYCQQYDRLPLSFGGGTKVEIK | 0.54 0.41 0.41 0.28 0.37 0.42 | 0.40 | 1 of 18 (1.88) |
| 12 | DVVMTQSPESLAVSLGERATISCMLSQMWALGMKVKNSVAWYQQKAGQPPKLLIYQASMRFNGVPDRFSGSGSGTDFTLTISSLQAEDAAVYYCQQYDRLPLIFGGGTKVEIK | 0.79 1.46 0.76 0.89 nd 0.84 | 0.95 | 1 of 18 (1.27) |
| 13 | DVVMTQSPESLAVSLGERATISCMISQLYNMGSFAINSVAWYQQKAGQPPKLLIYQAQTRNEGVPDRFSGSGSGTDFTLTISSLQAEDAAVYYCQQYDRLPLMFGGGTKVEIK | 1.01 0.61 0.99 1.69 1.18 1.23 | 1.12 | 1 of 18 (1.74) |
| 14 | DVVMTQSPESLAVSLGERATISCMISQLTNMGTFAINSVAWYQQKAGQPPKLLIYQASVRNEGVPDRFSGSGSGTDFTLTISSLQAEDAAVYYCQQYDRLPLIFGGGTKVEIK | 0.52 0.92 1.07 0.80 0.76 1.10 | 0.86 | 3 of 18 (3.08) |
| 15 | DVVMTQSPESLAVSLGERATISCHMSMLTLGGMRARNSVAWYQQKAGQPPKLLIYQMTTRENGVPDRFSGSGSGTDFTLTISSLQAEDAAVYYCQQYDRLPLSFGGGTKVEIK | 0.26 0.71 0.49 0.37 0.58 0.73 | 0.52 | 0 of 18 |
| 16 | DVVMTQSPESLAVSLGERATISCSLGLVTMLEYAGRNNVAWYQQKAGQPPKLLIYNNSTREKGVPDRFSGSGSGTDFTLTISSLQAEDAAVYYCQQYDRLPLSFGGGTKVEIK | 2.16 1.51 1.67 1.61 1.30 1.85 | 1.68 | 0 of 18 |
| 17 | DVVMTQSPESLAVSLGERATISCTISQMTSQFSQTINNVAWYQQKAGQPPKLLIYEVSTREKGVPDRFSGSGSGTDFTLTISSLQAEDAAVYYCQQYDRLPLAFGGGTKVEIK | 1.33 0.86 0.62 0.80 0.85 0.90 | 0.90 | 0 of 18 |
| 18 | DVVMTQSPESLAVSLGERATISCQLTMITGHMSVSKNNVAWYQQKAGQPPKLLIYEMETRMNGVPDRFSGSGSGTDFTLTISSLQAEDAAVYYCQQYDRLPLSFGGGTKVEIK | 0.99 1.09 0.77 0.64 0.75 0.97 | 0.87 | 0 of 18 |
| 19 | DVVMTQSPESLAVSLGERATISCMVTQMAMTGMMNKRSVAWYQQKAGQPPKLLIYNAETRENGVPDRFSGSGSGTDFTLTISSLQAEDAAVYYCQQYHRLPLIFGGGTKVEIK | 0.92 0.50 0.17 0.28 0.44 0.20 | 0.42 | 2 of 18 (2.33) |
| 20 | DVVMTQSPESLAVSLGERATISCKIGMTLDQLMHKKNNVAWYQQKAGQPPKLLIYDLVVRENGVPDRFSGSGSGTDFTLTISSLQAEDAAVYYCQQYHRLPLSFGGGTKVEIK | 0.67 0.24 0.53 0.25 0.45 0.64 | 0.46 | 0 of 18 |
| 21 | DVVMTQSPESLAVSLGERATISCMISQLYNMGQFAINSVAWYQQKAGQPPKLLIYQASIRCNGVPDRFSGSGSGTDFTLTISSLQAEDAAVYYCQQYDRLPLAFGGGTKVEIK | nd nd nd nd nd nd | nd | 0 of 18 |
| 22 | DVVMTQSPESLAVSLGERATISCHMSMLTLQGQRHRNAVAWYQQKAGQPPKLLIYQMTTRENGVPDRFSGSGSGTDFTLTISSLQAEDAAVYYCQQYDRLPLTFGGGTKVEIK | nd nd nd nd nd nd | nd | 0 of 18 |

The last 2 entries again:

VL	replicates, log10 nM	mean log10 Kd (nM)	empty controls
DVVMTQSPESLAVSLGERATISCMISQLYNMGQFAINSVAWYQQKAGQPPKLLIYQASIRCNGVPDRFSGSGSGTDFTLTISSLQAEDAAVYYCQQYDRLPLAFGGGTKVEIK	nd nd nd nd nd nd	nd	0 of 18
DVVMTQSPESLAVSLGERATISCHMSMLTLQGQRHRNAVAWYQQKAGQPPKLLIYQMTTRENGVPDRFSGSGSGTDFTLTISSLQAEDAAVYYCQQYDRLPLTFGGGTKVEIK	nd nd nd nd nd nd	nd	0 of 18

Values of this round are not directly comparable with the first-round values of the same sequences.
Empty control strains, which show no peptide, gave a signal in 4% of pairings with all light chain designs; the median was 2.64 and 95% of these signals were weaker than 1.59. No background was subtracted. For each scFv, signals with the empty controls are counted beside the result, with their mean in brackets.
The parent sequence was in this pool as ten entries: three were never detected, three once, and four in most replicates, with averages from 0.34 to 2.37.

The measurements come from Li et al. 2023 (doi:10.1038/s41467-023-39022-2) through the FLAb antibody collection.